From BindingDB's records for doi:10.1002/(SICI)1098-2396(199702)25:2 (University of Toronto, 1997)
Counter-ions that a name gives are not always drawn.

Sequences of proteins named here, by UniProt entry; tags and fusion partners are left off.
UniProt P61169, whole entry: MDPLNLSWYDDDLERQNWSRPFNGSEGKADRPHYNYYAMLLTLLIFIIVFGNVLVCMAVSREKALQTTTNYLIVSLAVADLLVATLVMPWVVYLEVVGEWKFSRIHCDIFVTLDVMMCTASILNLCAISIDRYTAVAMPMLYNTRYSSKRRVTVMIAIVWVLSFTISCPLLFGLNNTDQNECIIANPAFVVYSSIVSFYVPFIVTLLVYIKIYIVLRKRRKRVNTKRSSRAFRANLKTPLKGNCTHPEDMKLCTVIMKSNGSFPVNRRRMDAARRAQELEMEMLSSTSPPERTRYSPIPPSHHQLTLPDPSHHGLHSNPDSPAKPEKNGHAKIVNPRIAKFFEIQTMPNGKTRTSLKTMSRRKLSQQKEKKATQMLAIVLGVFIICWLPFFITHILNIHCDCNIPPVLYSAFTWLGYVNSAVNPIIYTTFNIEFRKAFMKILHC

Each compound was assayed against D(2) dopamine receptor (Rattus norvegicus, UniProt P61169).

Row | Ki [nM] | SMILES
1 | 35 | CCN(CC)CCNC(=O)c1cc(Cl)c(N)cc1OC [4-amino-5-chloro-N-[2-(diethylamino)ethyl]-2-methoxy-benzamide;hydrochloride]
2 | 1270 | CN1CCc2cccc3c2[C@H]1Cc1ccc(O)c(O)c1-3 [APOKYN]

Row | SMILES | Ki [nM]
3 | NCCc1c[nH]c2ccc(O)cc12 [[3H]-5-HT] | > 10000
